Here are results for eleven molecules from PMC7723054.

The list shows a part of the results.

What all share (experiment): FOREST: bead pull-down of RNA structure library v1, barcode microarray; U1A/LIN28A: 20 mM HEPES pH 7.5, 80 mM KCl, 20 mM NaCl, 10% glycerol, 2 mM DTT, 0.1 ug/uL BSA, 4 C; BG4/CIRBP/DHX36: 10 mM Tris-HCl pH 7.5, 100 mM KCl (or LiCl),; high values mean tight binding
One experiment addresses U1A (Homo sapiens, UniProt P09012).
A further experiment addresses T1, LIN28A (human?, UniProt Q9H9Z2 1-209).
T1 sequence: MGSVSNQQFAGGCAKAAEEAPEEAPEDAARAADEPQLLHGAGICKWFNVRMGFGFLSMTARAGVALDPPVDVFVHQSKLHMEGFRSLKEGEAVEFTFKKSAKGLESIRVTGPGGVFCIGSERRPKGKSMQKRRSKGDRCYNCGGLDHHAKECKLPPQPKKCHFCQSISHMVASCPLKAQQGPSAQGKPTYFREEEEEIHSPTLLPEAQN

The next experiment deals with T2, CIRBP (Homo sapiens, UniProt Q14011 1-172).
T2 sequence: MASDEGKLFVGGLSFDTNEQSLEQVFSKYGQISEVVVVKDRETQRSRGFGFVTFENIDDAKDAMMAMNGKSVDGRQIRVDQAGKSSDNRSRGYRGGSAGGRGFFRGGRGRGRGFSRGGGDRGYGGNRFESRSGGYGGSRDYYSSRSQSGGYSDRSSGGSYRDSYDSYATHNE

In the next experiment the target is T3, DHX36 (Homo sapiens, UniProt Q9H2U1 1-1008).
T3 sequence: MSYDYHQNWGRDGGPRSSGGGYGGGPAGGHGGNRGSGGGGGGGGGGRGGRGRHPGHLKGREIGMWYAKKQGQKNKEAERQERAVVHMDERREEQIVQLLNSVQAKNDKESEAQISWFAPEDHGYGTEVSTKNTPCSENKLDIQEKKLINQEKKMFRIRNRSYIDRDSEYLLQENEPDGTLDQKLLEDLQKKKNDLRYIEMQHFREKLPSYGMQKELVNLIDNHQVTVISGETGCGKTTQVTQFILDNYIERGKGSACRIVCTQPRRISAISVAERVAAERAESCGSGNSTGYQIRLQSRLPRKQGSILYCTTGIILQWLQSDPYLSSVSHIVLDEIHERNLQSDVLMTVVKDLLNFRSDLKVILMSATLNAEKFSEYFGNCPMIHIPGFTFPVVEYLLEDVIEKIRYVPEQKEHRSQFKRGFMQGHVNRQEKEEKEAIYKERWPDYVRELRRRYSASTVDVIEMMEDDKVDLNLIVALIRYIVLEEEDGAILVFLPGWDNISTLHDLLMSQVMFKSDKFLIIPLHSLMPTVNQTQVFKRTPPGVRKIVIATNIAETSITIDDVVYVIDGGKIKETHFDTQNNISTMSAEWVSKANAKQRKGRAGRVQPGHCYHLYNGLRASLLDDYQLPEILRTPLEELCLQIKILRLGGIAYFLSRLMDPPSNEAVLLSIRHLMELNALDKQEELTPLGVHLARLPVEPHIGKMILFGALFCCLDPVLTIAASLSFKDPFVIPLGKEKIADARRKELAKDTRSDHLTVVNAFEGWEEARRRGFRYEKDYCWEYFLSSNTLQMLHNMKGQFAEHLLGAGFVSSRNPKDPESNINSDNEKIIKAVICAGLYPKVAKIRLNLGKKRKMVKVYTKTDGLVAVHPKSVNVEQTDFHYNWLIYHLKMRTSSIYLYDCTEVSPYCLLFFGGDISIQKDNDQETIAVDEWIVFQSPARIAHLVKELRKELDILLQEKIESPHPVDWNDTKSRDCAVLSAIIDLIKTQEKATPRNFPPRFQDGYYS

B1: hsa-mir-4511 (structured_RNA)
RNA: GGGACAUCUGGAGAUGCAUAUCGCCCAUGGUGUACGAAGUUUCAGCCCCUGCACUCAGUUUGCACAGGGGCUGAAGCUUCGUGCAC
Turning to B1, the binding signal with U1A was 1.48 z-score; with LIN28A, -1.43 z-score; with CIRBP it was -0.99 z-score; with DHX36 it was -0.781 z-score.

B2: hsa-let-7i (structured_RNA)
RNA: GGGAAGACUCGAAAGUGUGUCCUGGCGAGGUGUACGAAGUUUCAGCGCUGUUGGUCGGGUUGUGACAUUGCCCGCUGUGGAGAUAACUGCGCUGAAGCUUCGUGCAC
On to B2, for which the binding signal came to 1.44 z-score with U1A, 2.87 z-score with LIN28A, 1.3 z-score in the experiment with CIRBP and 0.363 z-score in the experiment with DHX36.

B3: hsa-mir-6765 (structured_RNA)
RNA: GGGAAAUAGUGGCAUUGCUAUAGGCACCGGUGUACGAAGUUUCAGCGUGUGUGGCGUGGGUGCUGCGGGGCCGUCAGGGUGCCUGCGGGACGCUCACGCUGAAGCUUCGUGCAC
Regarding B3, the binding signal with U1A is 1.48 z-score; with LIN28A, 0.343 z-score; in the experiment with CIRBP it was -0.61 z-score; in the experiment with DHX36 it was 1.27 z-score.

B4: hsa-mir-103b-1 (structured_RNA)
RNA: GGGAACGAAUAGGAAGGACGACAAUAUCGGUGUACGAAGUUUCAGCUGCUUGAUCCAUAUGCAACAAGGCAGCUGAAGCUUCGUGCAC
On to B4, for which the binding signal is 1.44 z-score with U1A, 0.169 z-score with LIN28A, 2.05 z-score with CIRBP and 0.4 z-score with DHX36.

B5: hsa-mir-4439 (structured_RNA)
RNA: GGGAAGAGUGCCGUGACCUAGCUUUUACGGUGUACGAAGUUUCAGCGCAUUUUAUCUAAGAUACACACAAAGCAAAUGCGCUGAAGCUUCGUGCAC
Regarding B5, the binding signal was 2.73 z-score with U1A, -0.0238 z-score with LIN28A, 0.0866 z-score in the experiment with CIRBP and 0.00469 z-score with DHX36.

B6: hsa-mir-128-2 (structured_RNA)
RNA: GGGACUAGACAGUUACGCCUUCGAACUUGGUGUACGAAGUUUCAGCACGAGAGUGAGUAGCAGGUCUCGCUGAAGCUUCGUGCAC
Take B6: the binding signal is 1.46 z-score with U1A, 1.12 z-score with LIN28A, 0.452 z-score in the experiment with CIRBP and -0.0771 z-score in the experiment with DHX36.

B7: hsa-mir-384 (structured_RNA)
RNA: GGGAGCCAAUAGCCUCCCACGAUACCUGGGUGUACGAAGUUUCAGCGACAAUAUGUAUAAUGUUCAUAAGUCAUUCGCUGAAGCUUCGUGCAC
Consider B7, for which the binding signal with U1A is 1.46 z-score; in the experiment with LIN28A, 0.446 z-score; with CIRBP, -0.46 z-score; with DHX36 it was 0.415 z-score.

B8: hsa-mir-4635 (structured_RNA)
RNA: GGGAAGGACUCGGCGAUAAGUGAUAACUGGUGUACGAAGUUUCAGCUGGAUCACGCCGACAACACUGGUCUGCUGAAGCUUCGUGCAC
Turning to B8, the binding signal with U1A is 1.44 z-score; with LIN28A, 2.12 z-score; with CIRBP it was -0.41 z-score; in the experiment with DHX36, -0.738 z-score.

B9: hsa-mir-147a (structured_RNA)
RNA: GGGAUACUAAAGCCGGAUAACUACCUGGGGUGUACGAAGUUUCAGCACACACACCAGACUAUGGAAGCCAGUGUGCUGAAGCUUCGUGCAC
B9: the binding signal is 1.46 z-score with U1A, -0.832 z-score with LIN28A, -1.46 z-score in the experiment with CIRBP and -0.727 z-score with DHX36.

B10: hsa-mir-5196 (structured_RNA)
RNA: GGGACAAAGACAAGGUAGGUGCGUAAUAGGUGUACGAAGUUUCAGCGUUGGGGAACAGGUGGUUAGCACUUCAUGCUGAAGCUUCGUGCAC
As for B10, the binding signal with U1A was 1.44 z-score; with LIN28A, 1.79 z-score; with CIRBP, 1.61 z-score; with DHX36, 2.29 z-score.

B11: hsa-mir-6807 (structured_RNA)
RNA: GGGAAUAGGCGGCCUACUAUCCAUCUCGGGUGUACGAAGUUUCAGCAGAGGCUGUGGGCAGGGGGAGAUGUGAAGGAAAGAACUAGGACCCAUUCAUCCACUGCUGAAGCUUCGUGCAC
For B11, the binding signal with U1A was 1.43 z-score; with LIN28A, 1.51 z-score; with CIRBP it was -0.487 z-score; in the experiment with DHX36, 2.61 z-score.
